## Antibody variant affinities, Ab-91 heavy chain, assay 2

The measurements come from Engelhart et al. 2022 (doi:10.1038/s41597-022-01779-4) through the FLAb antibody collection.

Target: peptide PDVDLGDISGINAS, taken from heptad repeat 2 (HR2) of SARS-CoV-2 spike.

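Phage display of a naive human antibody library on the peptide gave the parent. The library (AAYL51) carries one to three amino acid substitutions per variant, with no insertions or deletions. AlphaSeq pools MATa yeast showing the antibodies with MATalpha yeast showing the peptide. After mating in shaken culture at 30 °C for 16 h, diploids were selected and their barcode pairs sequenced. Read counts were normalised to the haploid input and turned into Kd by a linear fit to BCL2-family pairs of known affinity, for each replicate. There are three technical replicates.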

Ab-91 is the parent antibody, in scFv form: VL, then three GGGGS repeats, then VH. The light chain is unchanged in all variants.
VL: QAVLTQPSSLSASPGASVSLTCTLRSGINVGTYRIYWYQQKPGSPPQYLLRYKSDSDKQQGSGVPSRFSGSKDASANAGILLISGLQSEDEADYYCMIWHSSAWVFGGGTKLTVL
VH: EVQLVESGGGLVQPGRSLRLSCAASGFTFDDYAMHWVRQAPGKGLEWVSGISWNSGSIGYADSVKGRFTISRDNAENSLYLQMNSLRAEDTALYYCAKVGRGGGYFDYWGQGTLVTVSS

The parent's heavy chain CDRs are GFTFDDYAMH, GISWNSGSIGYADSVK, VGRGGGYFDY; each variant's own CDRs replace them letter for letter.
The Kd shown is the geometric mean over detected replicates; a lower Kd is a better binder.
"not detected" marks a missing value. The strain was present, yet no cells mated with the target were sequenced in any replicate, which points to weak or no binding.
Order: sorted from the lowest average up, undetected variants last.
Empty control strains, which show no peptide, gave a signal in 21% of pairings with library AAYL51; the median was 34 µM and 95% of these signals were weaker than 1.8 µM. No background was subtracted. For each scFv, signals with the empty controls are counted beside the result.
In this assay the parent's reference entry averaged 72 nM; its copy inside this library read 7.5 nM.

CDR-H1,CDR-H2,CDR-H3,Kd,seen in,signal with controls
GFQFDDYAMH,GVSWNSGSCGYADSVK,VGRGGGYFDY,310 nM,3/3,3/9
GFTFWDYAMG,GISWNSGSIGYADSVK,VGRGGGYFDI,940 nM,1/3,0/9
GFTFDDYAME,GISWNSGSIDYADSVK,NGRGGGYFDY,1.6 µM,1/3,1/9
GFTFDDYAMH,GVSVNSGSIGYADSVK,VGWGGGYFDY,8.5 µM,2/3,0/9
GFWFDDYAMH,GISWNSGSIGYADSVK,HGRGGQYFDY,11 µM,2/3,1/9
GFTFDDYAMH,GKSWNSGSIGYAAVVK,VGRGGGYFDY,11 µM,2/3,1/9
GCTFDDYAMH,GISWNSGSIGYADSID,VGRGGGYFDY,17 µM,1/3,2/9
GFTFDDYAMH,GISWNSGSIGYADRVK,VGRGGGYFVY,22 µM,3/3,4/9
GFTFDDYAMH,GISRNSGSIGRADSVT,VGRGGGYFDY,27 µM,1/3,2/9
GFAFDDYAMH,GESWNSGSIGYADSVQ,VGRGGGYFDY,28 µM,1/3,1/9
GFVFDDYAMG,GISWNSGSIGYADWVK,VGRGGGYFDY,36 µM,3/3,3/9
GFTFDDYAMH,GISSNLGSIGYAKSVK,VGRGGGYFDY,40 µM,2/3,5/9
GPTFDDYAMH,GISWNSGSIGTADSVK,WGRGGGYFDY,56 µM,3/3,1/9
GFDFDDYAMH,GISWRSGSIGYADSVK,VYRGGGYFDY,74 µM,2/3,2/9
IFTFDDYAMH,GISWNSGSQGYYDSVK,VGRGGGYFDY,75 µM,2/3,4/9
GFTFLDYAWH,GISWNSGMIGYADSVK,VGRGGGYFDY,83 µM,1/3,3/9
GFTCDDYAMH,GISWESGSIGYDDSVK,VGRGGGYFDY,98 µM,1/3,2/9
GFTFDDGAMH,GVSWNSGSIGYADSVK,VGRGGAYFDY,98 µM,2/3,5/9
GFTFDDYAMH,GISWNSGSIGRADSVD,VPRGGGYFDY,110 µM,3/3,3/9
GFTFDDYAMH,GISWMSGSIGYADDVK,GGRGGGYFDY,240 µM,3/3,4/9
GFTFDDYAMH,CISWNSGSIGYADSVK,VGQGGGYFDY,260 µM,2/3,3/9
GFTYDDYAMH,GISWNSGSIGYADSVK,VGRGCGYNDY,270 µM,2/3,3/9
AFTFDDYAGH,GISWNSGSIGYADSVK,VGRGGGFFDY,440 µM,2/3,5/9
GFTFDDYSMH,GIYWNSGSEGYADSVK,VGRGGGYFDY,910 µM,2/3,6/9
GFTPDDYAQH,GIDWNSGSIGYADSVK,VGRGGGYFDY,not detected,0/3,2/9
GFTFDDYAMH,GNSWNSASIGYADSVK,VGRGGGYFDH,not detected,0/3,1/9
GFTFDDYAMH,GISDNLGTIGYADSVK,VGRGGGYFDY,not detected,0/3,0/9
GATFDDYAMH,GISGNSGSIGYADSVK,VGRGGGYFFY,not detected,0/3,1/9
GFTFDDYAMH,LWSWNGGSIGYADSVK,VGRGGGYFDY,not detected,0/3,2/9
NFTFDDYAMH,GISWNSGSIWYADSVK,VPRGGGYFDY,not detected,0/3,0/9
GFLFDDYAGH,GISWNSGSIGYADSVK,VGRGGGYFDP,not detected,0/3,0/9
GFTFDDYAMH,KISWNSGCIGEADSVK,VGRGGGYFDY,not detected,0/3,1/9
GFTFDDYAMH,GISWNSGSIGYAESVK,FGRGGGYFHY,not detected,0/3,0/9
GFTFDDYAMH,GINWNSGSIDYADSVK,VGRGGGYFDI,not detected,0/3,1/9
GFTFDDYAMH,WISLNSGSIGYADYVK,VGRGGGYFDY,not detected,0/3,0/9
GFGFDDYQMH,GISWNSGSIGYADSVF,VGRGGGYFDY,not detected,0/3,0/9
GFTFDDYAMH,GISWNSGSIGYFSSVK,VGRGGGYFDR,not detected,0/3,0/9
GFTFSCYTMH,GISWNSGSIGYADSVK,VGRGGGYFDY,not detected,0/3,0/9
GFTFDDYAMH,GISWNSGSQGYLDSVK,VGRGGGVFDY,not detected,0/3,0/9
GHTFDDYAMH,GISWNSNSIGAADSVK,VGRGGGYFDY,not detected,0/3,0/9
GFTFDIYQMH,GISWNSGCIGYADSVK,VGRGGGYFDY,not detected,0/3,1/9
GFTFDDYAMH,GYSWNSGSLGYADSVK,VGRGGHYFDY,not detected,0/3,2/9
GFTFDDYAMH,GKSWNSGSIGLEDSVK,VGRGGGYFDY,not detected,0/3,0/9
GFTFIDYAMI,GISWNSGSQGYADSVK,VGRGGGYFDY,not detected,0/3,1/9
GFTWDDYAMH,GISWNSGGIGYADSVK,VGRGGGYFDY,not detected,0/3,0/9

Excerpt, the final 6 entries:

CDR-H1,CDR-H2,CDR-H3,Kd,seen in,signal with controls
GHTFDDYAMH,GISWNSNSIGAADSVK,VGRGGGYFDY,not detected,0/3,0/9
GFTFDIYQMH,GISWNSGCIGYADSVK,VGRGGGYFDY,not detected,0/3,1/9
GFTFDDYAMH,GYSWNSGSLGYADSVK,VGRGGHYFDY,not detected,0/3,2/9
GFTFDDYAMH,GKSWNSGSIGLEDSVK,VGRGGGYFDY,not detected,0/3,0/9
GFTFIDYAMI,GISWNSGSQGYADSVK,VGRGGGYFDY,not detected,0/3,1/9
GFTWDDYAMH,GISWNSGGIGYADSVK,VGRGGGYFDY,not detected,0/3,0/9